Legend:
hBSP promoter = experiment: hBSP promoter-luciferase reporter activity in transfected cells; type: cell-based, human; settings: recombinant b2M 0-0.6 mg/ml
From the text: (§1) Plasmid Construction. Genomic DNA was used in the PCR of the 0.8-kb hOC promoter inserting KpnI and XhoI sites, subsequently cloned into pGL3-Basic-luciferase reporter vector (Promega, Madison, Wis.) as described before (9). The deletion constructs, ΔA [374 bp upstream of AP1/VDRE (AV) element], ΔTst-1 (POU-factor Tst-1/Oct-6 binding site), ΔCRE (cAMP-responsive element) and ΔIRF-1 (interferon regulatory factor-i binding site) in hOC promoter/pGL3 were generated by recombinant PCR technique. The point mutation plasmids in CRE (from -643 to -636 in hOC promoter, 5′-TGACCTCA-3′) were constructed with a QuikChange Site-Directed Mutagenesis Kit (Stratagene). […]
(§2) Transfection and Luciferase Activity Assay. […] For luciferase activity assay, 20 μl of the lysate supernatant was mixed with 100 μl of the luciferase substrate (Promega) and detected by a luminometer (Monolight 3010, luminometer PharMingen, San Diego, Calif.). For β-galactosidase activity assay, 100 μl of the supernatant was mixed with 100 μl of 2×β-galactosidase substrate [200 mM sodium phosphate buffer, pH 7.3, 2 mM MgCl2, 100 mM β-mercaptoethanol and 1.33 mg/ml o-nitrophenyl-β-D-galactopyranoside (ONPG)], and incubated at 37° C. for 30 min. β-galactosidase activity was detected by Microplate spectrophotometer (Molecular Devices Corp., Sunnyvale, Calif.) at 405 nm wavelength. […]

hOC promoter = experiment: hOC promoter-luciferase reporter activity in transfected cells; type: cell-based, human; settings: recombinant b2M 0-0.6 mg/ml
From the text: as §1, §2

[1] = test system: human prostate cancer cell lines; experiment: In vitro cell proliferation assay, prostate cancer cells; type: cell-based; settings: ARCaP, C4-2B, DU145 and LNCaP cells; treated with β2M CM or Neo CM, 4-day
Protocol: (§3) LNCaP, C4-2B, DU145, PC3, MG63 and ARCaP cell lines were seeded in 96-well plates in T-medium containing 5% FBS, respectively. After 24 h incubation, media were replaced by fresh, serum-free T-medium and incubated for an additional 24 h. The cells were treated with β2M CM or Neo CM for 4-day incubation. Cell numbers were measured every 24 h using CellTiter 96® AQueous One Solution Cell Proliferation Assay (Promega, Madison, Wis.).

MG-63 = experiment: In vitro cell proliferation assay, bone cell line; type: cell-based, human; settings: MG-63 cells in culture
Protocol: as §3

Substance	hBSP promoter activity (hBSP promoter)	hOC promoter activity (hOC promoter)	growth of human prostate cancer cell lines [1]	growth of bone cell line (MG-63)
Recombinant b2M protein: recombinant β2-microglobulin protein	stimulated	stimulated		
β2M: soluble protein factor of 11.8 kDa secreted by cancer cells, β2-microglobulin			stimulate the growth	not

Reference: patent US20070078085A1, “Methods and compositions for the utilization and targeting of osteomimicry” (priority 2004, published 2007)
